The values below come from ChEMBL document CHEMBL4033688, “Design, synthesis and anti-tumor activity study of novel histone deacetylase inhibitors containing isatin-based caps and o-phenylenediamine-based zinc binding groups” (Bioorg Med Chem, 2017).

Amino acid sequences for entries named in this document (tags omitted). A change or cut given only in a name is not applied to a line headed by its entry.
UniProt Q13547, whole entry: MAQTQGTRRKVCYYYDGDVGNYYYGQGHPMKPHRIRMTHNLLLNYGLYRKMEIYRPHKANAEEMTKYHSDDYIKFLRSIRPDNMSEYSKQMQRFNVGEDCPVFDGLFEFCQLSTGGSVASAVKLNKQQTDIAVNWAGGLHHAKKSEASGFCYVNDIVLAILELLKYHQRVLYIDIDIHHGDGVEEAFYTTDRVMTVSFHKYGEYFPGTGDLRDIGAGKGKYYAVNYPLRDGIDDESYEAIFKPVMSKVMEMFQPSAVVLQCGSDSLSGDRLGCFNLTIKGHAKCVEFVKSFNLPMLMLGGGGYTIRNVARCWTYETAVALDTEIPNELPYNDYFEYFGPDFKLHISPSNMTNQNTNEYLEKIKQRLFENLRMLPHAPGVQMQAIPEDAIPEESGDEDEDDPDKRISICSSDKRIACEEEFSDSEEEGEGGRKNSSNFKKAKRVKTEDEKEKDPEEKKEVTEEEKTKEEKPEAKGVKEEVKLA
UniProt Q92769, whole entry: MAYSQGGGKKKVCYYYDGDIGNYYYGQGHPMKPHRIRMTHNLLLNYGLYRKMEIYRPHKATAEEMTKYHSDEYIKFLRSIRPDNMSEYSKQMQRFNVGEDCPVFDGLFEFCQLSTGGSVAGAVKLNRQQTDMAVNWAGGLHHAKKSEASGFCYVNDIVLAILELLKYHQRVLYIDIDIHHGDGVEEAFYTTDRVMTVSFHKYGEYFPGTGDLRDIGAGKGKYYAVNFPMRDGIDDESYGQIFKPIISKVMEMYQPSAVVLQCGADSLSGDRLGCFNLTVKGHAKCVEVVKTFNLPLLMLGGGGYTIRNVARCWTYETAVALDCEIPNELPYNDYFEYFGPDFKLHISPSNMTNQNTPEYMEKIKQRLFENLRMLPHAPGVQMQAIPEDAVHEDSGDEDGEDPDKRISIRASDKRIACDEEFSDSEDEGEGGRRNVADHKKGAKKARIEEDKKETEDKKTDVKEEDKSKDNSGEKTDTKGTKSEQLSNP
UniProt O15379: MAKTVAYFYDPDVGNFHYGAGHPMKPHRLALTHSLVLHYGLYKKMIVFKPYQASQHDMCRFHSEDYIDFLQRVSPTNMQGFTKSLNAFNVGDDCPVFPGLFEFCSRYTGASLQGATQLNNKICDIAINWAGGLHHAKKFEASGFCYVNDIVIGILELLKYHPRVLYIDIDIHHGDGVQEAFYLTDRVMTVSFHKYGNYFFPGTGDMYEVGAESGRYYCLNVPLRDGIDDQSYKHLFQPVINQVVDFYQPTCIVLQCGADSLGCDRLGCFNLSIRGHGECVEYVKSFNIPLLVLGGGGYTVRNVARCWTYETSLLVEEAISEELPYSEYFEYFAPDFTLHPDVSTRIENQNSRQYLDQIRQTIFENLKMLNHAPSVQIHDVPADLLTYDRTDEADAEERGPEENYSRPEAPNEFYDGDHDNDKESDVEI

Molecules are shown by their SMILES. pIC50: −log10 of the molar value.

Broadly, the pIC50 is the IC50 on a negative log10 scale, so that one unit is a factor of ten. Low readings indicate a high IC50, high ones a low IC50.

Targets include Histone deacetylase 1 (Homo sapiens, UniProt Q13547); Histone deacetylase 2 (Homo sapiens, UniProt Q92769); Histone deacetylase 3 (Homo sapiens, UniProt O15379).

As for `Nc1ccccc1NC(=O)c1ccc(NC(=O)CCN2C(=O)C3(OCCCO3)c3cc(Cl)ccc32)cc1`, the pIC50 at Histone deacetylase 1 is 7.49; at Histone deacetylase 2, 6.59; on Histone deacetylase 3, 6.51.

For the compound `Nc1ccc(-c2cccs2)cc1NC(=O)c1ccc(CNC(=O)CN2C(=O)C3(OCCCO3)c3cc(Cl)ccc32)cc1`, the pIC50 is 7.64 on Histone deacetylase 1, 6.75 against Histone deacetylase 2 and 3.82 on Histone deacetylase 3.

For the compound `Nc1ccccc1NC(=O)c1ccc(CNC(=O)CN2C(=O)C3(OCCCO3)c3cc(Cl)ccc32)cc1`, the pIC50 at Histone deacetylase 1 was 6.86; on Histone deacetylase 2, 6.65; against Histone deacetylase 3, 7.02.

`Nc1ccccc1NC(=O)c1ccc(NC(=O)CCN2C(=O)C3(OCCCO3)c3cc(Br)ccc32)cc1`: the negative-log IC50 (pIC50) at Histone deacetylase 1 is 7.92; on Histone deacetylase 2 it was 7.59; at Histone deacetylase 3, 7.72.

As for `Nc1ccccc1NC(=O)c1ccc(NC(=O)CN2C(=O)C3(OCCO3)c3cc(Br)ccc32)cc1`, the results for the negative-log IC50 (pIC50) against Histone deacetylase 1 and on Histone deacetylase 2 were 7.34 and 6.89, respectively.
